Amino acid sequences for entries named in this document (tags omitted).
UniProt P34969, whole entry: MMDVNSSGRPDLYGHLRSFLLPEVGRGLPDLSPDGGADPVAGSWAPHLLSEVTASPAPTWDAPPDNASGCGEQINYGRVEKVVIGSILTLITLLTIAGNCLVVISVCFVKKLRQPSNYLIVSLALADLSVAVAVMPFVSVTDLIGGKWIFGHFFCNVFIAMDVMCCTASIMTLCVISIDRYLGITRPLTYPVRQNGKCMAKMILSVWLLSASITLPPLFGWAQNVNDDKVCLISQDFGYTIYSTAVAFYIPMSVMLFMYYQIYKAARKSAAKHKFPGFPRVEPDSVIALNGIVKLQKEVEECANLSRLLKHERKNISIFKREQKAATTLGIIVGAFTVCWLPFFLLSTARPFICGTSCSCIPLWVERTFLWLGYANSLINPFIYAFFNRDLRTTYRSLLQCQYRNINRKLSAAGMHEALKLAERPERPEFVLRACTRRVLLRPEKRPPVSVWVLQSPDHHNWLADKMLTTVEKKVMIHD

According to ChEMBL document CHEMBL4616598 (Bioorg Med Chem, 2020):

Molecular target: 5-hydroxytryptamine receptor 7 (Homo sapiens, UniProt P34969)
Assay: Displacement of [3H]-5-carboxamidotryptamine from human 5-HT7A receptor expressed in HEK293 cell membranes incubated for 90 mins by scintillation counting method

O=C1CC2(CCCC2)CC(=O)N1CCCCN1CCN(c2ncccn2)CC1 [BUSPIRONE]
Ki: 840 nM

CCCN(CCC)[C@@H]1CCc2cccc(O)c2C1
Ki: 48 nM

CCCN(CCC)[C@H]1CCc2cccc(O)c2C1
Ki: 1000 nM
